Target: T1, recombinant HDAC8 (Homo sapiens, UniProt Q9BY41)
T1 construct: purchased BPS Bioscience Inc
T1 sequence (Q9BY41 1-377): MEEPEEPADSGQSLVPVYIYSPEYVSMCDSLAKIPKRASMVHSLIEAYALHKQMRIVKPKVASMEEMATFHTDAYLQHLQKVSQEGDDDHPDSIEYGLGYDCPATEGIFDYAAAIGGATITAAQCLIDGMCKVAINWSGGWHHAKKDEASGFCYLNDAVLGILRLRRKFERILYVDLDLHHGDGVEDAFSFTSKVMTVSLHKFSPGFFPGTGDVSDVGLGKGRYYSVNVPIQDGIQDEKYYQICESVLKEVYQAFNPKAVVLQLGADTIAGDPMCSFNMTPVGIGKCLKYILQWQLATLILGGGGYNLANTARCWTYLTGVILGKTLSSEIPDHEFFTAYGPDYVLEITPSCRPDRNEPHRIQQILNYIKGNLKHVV
Assay: HDAC inhibitor enzymatic assay (BPS Bioscience), HDAC8
Format: biochemical
Settings: 37 °C for 30 min; read-out: IC50 against HDAC8

- IC50: 1.3 µM
Substance: TSA

Source: publication PMC10526199 (Biomolecules, 2023)
